The assay concerns the target T1, ryanodine receptor (skeletal sarcoplasmic reticulum membrane vesicles) (Oryctolagus cuniculus, UniProt P11716).
T1 construct: skeletal sarcoplasmic reticulum membrane vesicles; from tissue; host or cells: skeletal muscle sarcoplasmic reticulum membrane vesicles
Description: biochemical. Format: binding.

The chains behind the UniProt entries cited, without tags or fusion partners. Where a name states a change or a piece, a line headed by the entry shows the natural chain unless it says otherwise.
UniProt P11716: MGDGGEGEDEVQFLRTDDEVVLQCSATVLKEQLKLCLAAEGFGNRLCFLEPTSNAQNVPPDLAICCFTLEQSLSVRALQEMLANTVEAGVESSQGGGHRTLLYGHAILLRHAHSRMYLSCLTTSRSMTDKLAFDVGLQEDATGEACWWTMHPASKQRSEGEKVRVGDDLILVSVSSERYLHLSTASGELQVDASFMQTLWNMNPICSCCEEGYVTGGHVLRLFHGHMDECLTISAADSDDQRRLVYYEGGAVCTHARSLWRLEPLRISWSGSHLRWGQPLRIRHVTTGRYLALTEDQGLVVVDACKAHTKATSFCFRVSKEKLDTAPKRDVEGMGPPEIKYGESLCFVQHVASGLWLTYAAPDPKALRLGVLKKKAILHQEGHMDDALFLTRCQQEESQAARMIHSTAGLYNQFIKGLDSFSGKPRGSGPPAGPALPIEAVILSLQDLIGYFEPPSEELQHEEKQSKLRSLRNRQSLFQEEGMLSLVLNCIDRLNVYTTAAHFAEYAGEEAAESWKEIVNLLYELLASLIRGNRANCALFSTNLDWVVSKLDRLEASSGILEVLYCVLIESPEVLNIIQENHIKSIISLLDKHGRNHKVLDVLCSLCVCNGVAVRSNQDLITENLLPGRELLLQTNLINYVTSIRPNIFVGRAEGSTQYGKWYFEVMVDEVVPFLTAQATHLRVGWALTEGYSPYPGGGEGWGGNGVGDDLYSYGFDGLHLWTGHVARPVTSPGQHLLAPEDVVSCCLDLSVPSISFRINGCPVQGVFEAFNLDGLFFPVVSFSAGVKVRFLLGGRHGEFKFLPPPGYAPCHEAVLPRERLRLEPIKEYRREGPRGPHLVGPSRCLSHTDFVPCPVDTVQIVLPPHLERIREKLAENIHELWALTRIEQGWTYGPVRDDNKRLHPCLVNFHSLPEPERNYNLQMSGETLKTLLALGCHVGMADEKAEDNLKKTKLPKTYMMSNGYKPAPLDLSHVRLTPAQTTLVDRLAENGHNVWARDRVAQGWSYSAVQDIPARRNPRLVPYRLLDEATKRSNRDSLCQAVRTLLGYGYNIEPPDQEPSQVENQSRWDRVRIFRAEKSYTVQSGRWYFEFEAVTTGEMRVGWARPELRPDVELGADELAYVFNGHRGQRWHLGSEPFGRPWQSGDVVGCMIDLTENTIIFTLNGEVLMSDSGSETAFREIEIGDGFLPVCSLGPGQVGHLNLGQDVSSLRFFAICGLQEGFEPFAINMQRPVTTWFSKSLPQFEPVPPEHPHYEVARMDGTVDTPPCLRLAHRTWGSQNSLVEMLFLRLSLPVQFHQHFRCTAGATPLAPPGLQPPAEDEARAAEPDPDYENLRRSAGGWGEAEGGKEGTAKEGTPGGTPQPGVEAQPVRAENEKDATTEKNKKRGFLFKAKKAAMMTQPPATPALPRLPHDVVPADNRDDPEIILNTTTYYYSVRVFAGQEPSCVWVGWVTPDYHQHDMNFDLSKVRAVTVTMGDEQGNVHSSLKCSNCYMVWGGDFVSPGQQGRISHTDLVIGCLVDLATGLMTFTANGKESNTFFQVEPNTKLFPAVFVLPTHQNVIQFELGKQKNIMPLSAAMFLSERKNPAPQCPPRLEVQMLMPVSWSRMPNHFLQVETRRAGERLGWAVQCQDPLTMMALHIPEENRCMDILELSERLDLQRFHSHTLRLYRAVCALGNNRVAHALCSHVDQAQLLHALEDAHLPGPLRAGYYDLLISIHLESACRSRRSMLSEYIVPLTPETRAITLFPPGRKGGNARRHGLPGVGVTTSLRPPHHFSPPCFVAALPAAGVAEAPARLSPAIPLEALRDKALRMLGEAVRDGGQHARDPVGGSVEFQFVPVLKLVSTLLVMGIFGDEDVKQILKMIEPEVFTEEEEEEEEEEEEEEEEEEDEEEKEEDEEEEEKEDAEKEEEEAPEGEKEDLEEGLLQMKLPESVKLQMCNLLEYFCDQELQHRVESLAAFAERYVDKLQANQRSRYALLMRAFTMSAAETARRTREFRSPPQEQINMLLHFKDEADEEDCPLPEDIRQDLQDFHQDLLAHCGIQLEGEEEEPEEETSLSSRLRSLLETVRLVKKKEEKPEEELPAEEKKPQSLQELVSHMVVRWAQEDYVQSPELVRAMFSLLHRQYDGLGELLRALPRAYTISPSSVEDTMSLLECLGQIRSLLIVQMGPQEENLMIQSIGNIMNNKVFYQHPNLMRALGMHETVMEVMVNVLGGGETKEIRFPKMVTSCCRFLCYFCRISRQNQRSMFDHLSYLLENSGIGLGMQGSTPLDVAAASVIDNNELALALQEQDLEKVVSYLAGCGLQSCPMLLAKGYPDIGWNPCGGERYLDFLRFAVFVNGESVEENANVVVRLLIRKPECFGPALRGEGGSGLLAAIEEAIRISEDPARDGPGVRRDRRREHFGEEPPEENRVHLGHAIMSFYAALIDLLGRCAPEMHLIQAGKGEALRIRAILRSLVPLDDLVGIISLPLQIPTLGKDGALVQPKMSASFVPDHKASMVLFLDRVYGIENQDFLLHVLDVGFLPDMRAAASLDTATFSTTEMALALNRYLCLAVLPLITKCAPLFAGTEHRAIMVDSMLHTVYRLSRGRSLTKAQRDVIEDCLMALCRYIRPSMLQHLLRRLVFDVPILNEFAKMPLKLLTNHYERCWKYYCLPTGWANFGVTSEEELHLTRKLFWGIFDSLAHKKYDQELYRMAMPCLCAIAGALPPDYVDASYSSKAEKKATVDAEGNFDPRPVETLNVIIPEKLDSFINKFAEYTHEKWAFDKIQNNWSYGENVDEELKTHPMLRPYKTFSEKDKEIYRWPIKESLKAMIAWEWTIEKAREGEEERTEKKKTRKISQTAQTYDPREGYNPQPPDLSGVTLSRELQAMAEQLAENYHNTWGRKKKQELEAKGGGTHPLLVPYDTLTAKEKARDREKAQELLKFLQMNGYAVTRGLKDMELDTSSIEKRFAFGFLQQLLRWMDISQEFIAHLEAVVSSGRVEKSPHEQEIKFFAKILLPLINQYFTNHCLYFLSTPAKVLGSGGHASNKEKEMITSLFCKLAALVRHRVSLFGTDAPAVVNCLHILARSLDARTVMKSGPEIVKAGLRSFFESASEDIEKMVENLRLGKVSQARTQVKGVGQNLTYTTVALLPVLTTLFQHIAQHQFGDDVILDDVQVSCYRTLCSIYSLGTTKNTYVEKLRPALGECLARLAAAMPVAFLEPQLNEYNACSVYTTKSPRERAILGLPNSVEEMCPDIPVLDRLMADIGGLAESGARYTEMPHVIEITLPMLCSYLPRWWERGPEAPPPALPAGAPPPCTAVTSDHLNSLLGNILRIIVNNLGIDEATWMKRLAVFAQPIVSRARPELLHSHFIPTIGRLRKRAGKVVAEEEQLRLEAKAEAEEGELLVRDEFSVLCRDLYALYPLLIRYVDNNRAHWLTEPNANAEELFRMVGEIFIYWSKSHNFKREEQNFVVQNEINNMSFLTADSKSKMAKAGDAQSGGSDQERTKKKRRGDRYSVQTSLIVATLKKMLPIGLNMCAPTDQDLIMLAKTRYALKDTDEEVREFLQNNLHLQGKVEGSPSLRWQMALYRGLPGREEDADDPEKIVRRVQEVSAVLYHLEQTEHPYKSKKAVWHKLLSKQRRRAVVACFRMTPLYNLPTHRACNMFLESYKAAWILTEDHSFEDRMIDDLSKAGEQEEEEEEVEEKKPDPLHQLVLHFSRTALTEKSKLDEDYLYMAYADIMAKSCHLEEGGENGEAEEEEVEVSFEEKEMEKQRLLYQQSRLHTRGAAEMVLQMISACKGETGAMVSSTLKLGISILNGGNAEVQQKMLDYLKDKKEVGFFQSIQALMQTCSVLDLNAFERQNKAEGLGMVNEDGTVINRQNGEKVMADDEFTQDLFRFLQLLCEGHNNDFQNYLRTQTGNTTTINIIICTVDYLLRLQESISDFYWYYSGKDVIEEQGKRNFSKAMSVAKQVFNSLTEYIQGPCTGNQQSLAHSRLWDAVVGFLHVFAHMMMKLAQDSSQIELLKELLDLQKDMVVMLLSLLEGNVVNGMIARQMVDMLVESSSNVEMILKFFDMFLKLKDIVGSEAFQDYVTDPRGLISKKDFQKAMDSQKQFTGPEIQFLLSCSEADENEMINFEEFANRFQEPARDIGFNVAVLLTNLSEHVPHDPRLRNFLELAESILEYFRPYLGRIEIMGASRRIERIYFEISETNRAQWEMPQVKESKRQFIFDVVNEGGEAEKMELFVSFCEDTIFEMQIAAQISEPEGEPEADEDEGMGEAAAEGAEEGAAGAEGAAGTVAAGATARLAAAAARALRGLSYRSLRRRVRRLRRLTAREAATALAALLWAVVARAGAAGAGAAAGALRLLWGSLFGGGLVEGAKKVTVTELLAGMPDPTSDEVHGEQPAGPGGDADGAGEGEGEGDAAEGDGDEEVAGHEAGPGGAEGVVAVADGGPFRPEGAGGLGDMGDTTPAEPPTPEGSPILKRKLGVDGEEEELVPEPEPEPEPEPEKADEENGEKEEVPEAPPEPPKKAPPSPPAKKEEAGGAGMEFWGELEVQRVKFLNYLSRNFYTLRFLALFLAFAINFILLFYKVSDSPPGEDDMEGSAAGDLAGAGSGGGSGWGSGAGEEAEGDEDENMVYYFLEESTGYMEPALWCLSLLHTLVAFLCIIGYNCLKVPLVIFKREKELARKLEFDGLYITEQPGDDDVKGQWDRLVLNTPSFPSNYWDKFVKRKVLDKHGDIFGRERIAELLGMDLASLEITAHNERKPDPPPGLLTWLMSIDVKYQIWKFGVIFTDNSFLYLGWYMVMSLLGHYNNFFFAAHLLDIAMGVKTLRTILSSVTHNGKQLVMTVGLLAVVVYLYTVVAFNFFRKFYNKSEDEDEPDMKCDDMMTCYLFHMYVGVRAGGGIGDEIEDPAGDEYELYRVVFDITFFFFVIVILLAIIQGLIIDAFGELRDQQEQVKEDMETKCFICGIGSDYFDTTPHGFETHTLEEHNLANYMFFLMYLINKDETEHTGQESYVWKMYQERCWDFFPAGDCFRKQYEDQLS

Take `CC1CCC2(O)C3(C)CC4(O)OC2(C1O)C1(O)C3(O)C(OC(=O)c2ccc[nH]2)C(O)(C(C)C)C41C` (centres unmarked) [Ryanodine, ryanodine]: the IC50 (commonly the point on the concentration scale where inhibition reaches its midpoint) came to 11.9 ± 1.6 nM and the Kd (commonly the free concentration of one partner at which half of the binding sites on the other are occupied at equilibrium, for simple one-to-one binding) came out at 4.4 ± 0.8 nM.
